The list shows a part of the results, in another mix than the full data. Activity calls are given as the source filed them. Rule for the calls, unless noted: active = hit-call score of the fitted dose curve at least 0.9, where 1 is the maximum; inactive = score below 0.9.
Assays:
[1] = read-out: Interleukin 17F (IL17F), IL17F (gene 112744); assay: BSK_BT_xIL17F: BioMAP Diversity Plus: BT Assay for Interleukin 17F (IL17F) Biomarker Activity (AID 2284243); conditions: primary human B cells with PBMC
Summary of the method: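 B cell/PBMC co-culture (human primary), 24 h compound exposure; sIL-17F by Luminex xMAP; gain-of-signal fit vs DMSO baseline.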

[2] = read-out: Actin alpha 1 (ACTA1), ACTA1 (gene 58); assay: BSK_MyoF_ACTA1: BioMAP Diversity Plus: MyoF Assay for Actin alpha 1 (ACTA1) Biomarker Activity (AID 2284244); conditions: primary human lung fibroblasts
Summary of the method: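 MyoF fibroblast system (human lung); a-SMA quantified via ELISA at 24 h; DMSO-normalised, gain-of-signal endpoint.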

[3] = read-out: Interleukin 2 (IL2), IL2 (gene 3558); assay: BSK_BT_xIL2: BioMAP Diversity Plus: BT Assay for Interleukin 2 (IL2) Biomarker Activity (AID 2284245); conditions: primary human B cells with PBMC
Summary of the method: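 Co-cultures of primary human B cells and PBMC are treated with chemical and sampled at 24 h. IL-2 secretion is quantified by Luminex xMAP, with DMSO-treated wells as baseline.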

[4] = read-out: Basic fibroblast growth factor (bFGF), FGF2 (gene 2247); assay: BSK_MyoF_bFGF: BioMAP Diversity Plus: MyoF Assay for Basic fibroblast growth factor (bFGF) Biomarker Activity (AID 2284246); conditions: primary human lung fibroblasts
Summary of the method: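 Fibroblasts from human lung, 24 h dosing. bFGF by ELISA; gain of signal over DMSO.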

[5] = read-out: Collagen IV, COL4A1 (gene 1282); assay: BSK_MyoF_CollagenIV: BioMAP Diversity Plus: MyoF Assay for Collagen IV Biomarker Activity (AID 2284247); conditions: primary human lung fibroblasts
Summary of the method: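 Lung fibroblasts (human primary) treated with chemicals were assayed after 24 h for Collagen IV using an ELISA, with DMSO serving as negative control and baseline for a positive-direction fit.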

[6] = read-out: Plasminogen activator inhibitor-1 (PAI1), SERPINE1 (gene 5054); assay: BSK_MyoF_PAI1: BioMAP Diversity Plus: MyoF Assay for Plasminogen activator inhibitor-1 (PAI1) Biomarker Activity (AID 2284256); conditions: primary human lung fibroblasts;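 note: PAI-1 protein level measured by ELISA in fibroblast cultures; PAI-1 read 24 h after compound addition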
Summary of the method: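 ELISA read-out of PAI-1 from primary human lung fibroblast cultures 24 h after dosing; gain-of-signal fit versus DMSO control.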

[7] = read-out: Interleukin-8 (IL8), CXCL8 (gene 3576); assay: BSK_MyoF_IL8: BioMAP Diversity Plus: MyoF Assay for Interleukin-8 (IL8) Biomarker Activity (AID 2284261); conditions: primary human lung fibroblasts
Summary of the method: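 ELISA read-out of IL-8 from primary human lung fibroblasts, 24 h post-dose; positive-direction curve fitting relative to DMSO vehicle baseline.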

Decorin, DCN (gene 1634) = assay: BSK_MyoF_Decorin: BioMAP Diversity Plus: MyoF Assay for Decorin Biomarker Activity (AID 2284265); conditions: primary human lung fibroblasts
Summary of the method: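 Human lung fibroblasts in the MyoF system were exposed to compound for 24 h, after which decorin was quantified by ELISA. Activity was fitted in the positive direction relative to DMSO negative control.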

[8] = BSK_MyoF_SRB: Viability Assessment in the BioMAP Diversity Plus: MyoF Assay (AID 2284267); conditions: primary human lung fibroblasts;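 note: total protein by SRB absorbance in parallel cultures as cytotoxicity measure; cells assessed 24 h after compound addition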
Summary of the method: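 In this viability endpoint, fibroblasts from human lung are treated for 24 h, TCA-fixed, SRB-stained (0.1%) and read at 560 nm. Gain of signal relative to DMSO defines activity.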

[9] = read-out: Matrix Metallopeptidase 1 (MMP1), MMP1 (gene 4312); assay: BSK_MyoF_MMP1: BioMAP Diversity Plus: MyoF Assay for Matrix Metallopeptidase 1 (MMP1) Biomarker Activity (AID 2284268); conditions: primary human lung fibroblasts
Summary of the method: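 ELISA readout of MMP1 in primary human lung fibroblast cultures, 24 h post-dosing. Gain of signal versus DMSO vehicle control defines activity. Parallel SRB staining (0.1% after 10% TCA fixation, 560 nm) flags overt cytotoxicity.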

[10] = read-out: TIMP metallopeptidase inhibitor 1 (TIMP1), TIMP1 (gene 7076); assay: BSK_MyoF_TIMP1: BioMAP Diversity Plus: MyoF Assay for TIMP metallopeptidase inhibitor 1 (TIMP1) Biomarker Activity (AID 2284269); conditions: primary human lung fibroblasts
Summary of the method: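 Fibroblasts from human lung are dosed with chemical, cultured 24 h, and assayed for TIMP-1 by ELISA. Increases over the DMSO baseline are scored, with SRB total-protein staining run in parallel for cytotoxicity.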

[11] = CCTE_Padilla_ZF_Score.General: CCTE's 144 Hour Post-fertilization zebrafish Assay Score for General Malformation, Padilla Lab (AID 2284411)
Summary of the method: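 Malformation, death and hatching were scored at 6 dpf by two blinded observers under a stereo microscope. Embryos were dosed singly from 6-8 hpf in sealed plates of 10% Hanks' at 26C and rinsed on 5 dpf; DMSO baseline.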

IYD (gene 389434) = assay: CCTE_GLTED_hIYD: CCTE's human Iodotyrosine Deiodinase (xIYD) Inhibition Assay, Great Lakes Toxicology and Ecology Division (GLTED) Lab (AID 2284317; active = hit-call score of the fitted dose curve at least 0.9, where 1 is the maximum;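 note: cell-free human IYD enzyme made in baculovirus insect cells; iodide freed from monoiodotyrosine measured by cerium arsenite color change at 420 nm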)
Summary of the method: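 Iodide liberated from monoiodotyrosine by baculovirus-expressed human IYD over 3 h was determined colorimetrically (Sandell-Kolthoff, 420 nm) after Dowex separation; inhibition is loss of signal versus DMSO.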

Measured: AC50

CC(C)OP(OC(C)C)OC(C)C
inactive: [1] | [2] | [3] | [4] | [5] | [6] | [7] | Decorin, DCN (gene 1634) | [8] | [9] | [10] | [11]

O=[N+]([O-])c1ccccc1[N+](=O)[O-]
active: IYD (gene 389434) 60.7 µM

From PubChem BioAssay (EPA / NIEHS)
